## Yeast mating assay B: variants of the scFv Ab-14

Target peptide (SARS-CoV-2 spike, HR2 region): PDVDLGDISGINAS

Parent: Ab-14, a human scFv built as VH, a (GGGGS)3 linker, VL. Only the CDRs of the heavy chain vary.
VH: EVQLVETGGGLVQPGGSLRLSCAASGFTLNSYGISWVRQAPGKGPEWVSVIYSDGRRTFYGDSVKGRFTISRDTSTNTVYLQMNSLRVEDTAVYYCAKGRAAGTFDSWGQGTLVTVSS
VL: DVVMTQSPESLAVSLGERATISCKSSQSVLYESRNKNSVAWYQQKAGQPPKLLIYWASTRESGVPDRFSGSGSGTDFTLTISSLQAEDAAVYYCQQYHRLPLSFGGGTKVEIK

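The starting antibody came from a phage panning campaign against this peptide. This is the validation round: designs drawn from the data on random variants, tested in the same kind of assay. Group labels follow the data file (Ctrl: baseline library sampled from a position-specific scoring matrix, with some repeated check sequences; Rand: our label for a block that the file lists under HC and that is probably the random mutants of the ten best first-round binders; En: ensemble of fine-tuned language models; GP: Gaussian process model; GPLM: also part of the Gaussian process libraries; HC: hill climbing; Gen: genetic algorithm; Gibbs: Gibbs sampling; a sequence that several methods proposed may carry one label only). Affinity was read by AlphaSeq, a pooled yeast mating assay with surface-displayed partners. After mating in shaken culture at 30 °C for 16 h, diploids were selected and their barcode pairs sequenced. Read counts were normalised to the haploid input and turned into Kd by a linear fit to BCL2-family pairs of known affinity, for each replicate. Mating was done six times.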

Variants are written as CDR1, CDR2 and CDR3 of the heavy chain (limits as in the source). Parent: GFTLNSYGIS, VIYSDGRRTFYGDSVK, GRAAGTFDS.
Kd is apparent (estimated from mating counts) and averaged on the log scale over replicates with a signal. Smaller is tighter.
An entry "no signal" has no value in the source: the pair was not observed among the diploids in any replicate. This suggests poor binding but is not conclusive.
The authors' rule: three or more of the six replicates give a measured affinity, fewer mean a poor binder.
As a blank, each scFv also met three strains without target: over all heavy chain designs, 1% of these pairings were detected, typically at 120 nM and seldom below 7.0 nM. For each scFv, signals with the empty controls are counted beside the result.
Some sequences occur more than once in the pool; their replicates are pooled.
Values of this round are not directly comparable with the first-round values of the same sequences.

CDR-H1,CDR-H2,CDR-H3,group,Kd,seen in,control signals
GFTLNEYGIS,VIYSDGRRTFYGDSVK,GRFAGTFDM,GP_HC,74 nM,3/6,0/18
GFFLDEYGIS,VIYADGMRTAYKDKVK,GSDTGLGWF,En_Gibbs,no signal,0/6,0/18
GFNLDEYGIS,VIYADGNRVFYANTVK,GLLGIGYSV,En_Gibbs,no signal,0/6,0/18
GFDLNEYGIS,VIYADGVRKAYSDSVK,GENAGTFDV,En_Gen,140 pM,6/6,0/18
GFTLNEYGIS,VIYSDGIRTFYGDSVK,GRAAGTFDK,GPLM_HC,1.0 nM,6/6,0/18
GFDLNEYGVS,VIYADGIRTKYADSFK,GDVVVALFQ,En_Gibbs,no signal,0/6,0/18
KFDLNSYGIS,VIYSDGRRTFYGDSVK,GKEAGTFDS,GP_Gen,19 nM,6/6,0/18
KFTRNSYGIS,VIYSDGRRTFYGDSVK,GRAAWTFDS,Ctrl,2.9 µM,1/6,0/18
EFDLNEYGVS,VIYADGHRTFYADHVK,GQVAGIFFM,En_Gibbs,no signal,0/6,0/18
GFELNSYGIS,VIYSDGRRTFYGDSVK,GITAGTFDK,GP_Gibbs,2.1 nM,6/6,0/18
GFDLNEYGIS,VIYADGMRTAYGDSVK,GTNAGTFDQ,En_HC,360 pM,6/6,0/18
GFEVDEYGIS,VIYADGKRSMYANKVK,GVIAGMMHV,En_Gibbs,no signal,0/6,0/18
GFDLNEYGVS,VIYADGIRSAYADSFK,GNVGVAFFQ,En_Gibbs,no signal,0/6,0/18
GEDLLEYGIS,VIYADGIRVMYMNQVK,GNVAGFFTL,En_Gibbs,11 nM,1/6,0/18
GFDLNEYGIS,VIYADGRRTFYIDSVK,GEVAGTFDA,En_HC,730 pM,6/6,1/18
GLNLNSYGIS,VIYSDGRRTFYKDSVK,GRAAGTFDS,Ctrl,4.2 nM,6/6,0/18
GFDLNEYGIS,VIYADGMRTAYADKVK,GNVAGTFDM,En_Gen,570 pM,6/6,0/18
GFSLNEYGIS,VIYSDGRRTFYGDSVK,GQAAGTFDG,GPLM_Gen,6.5 nM,5/6,0/18
GFTLNSYGIS,VIYSDTRRVFYSDSVK,GRAAGTFES,Ctrl,no signal,0/6,0/18
GNVLDEYGIS,VIYADGVRTAYAQRVK,GETGDNAMT,En_Gibbs,no signal,0/6,0/18
GEDLLEIGIS,VIYADGSRVAYTNAVK,GNLAGVFDL,En_Gibbs,no signal,0/6,0/18
GFDLNEYGIS,VIYADGKRTFYIDSVK,GENAGTFDV,En_HC,1.0 nM,6/6,1/18
GFDLEDYGIS,VIYADGQRTAYADSVK,GNVAGTFDI,En_Gen,no signal,0/6,0/18
GFDLNSYGIS,VIYSDGRRTFYIDSVK,GRAAGTFDK,GP_HC,150 nM,2/6,0/18
GFDIEEYGIS,VIYADGERTSYSNAVK,GNMAGTFLF,En_Gibbs,1.7 nM,6/6,1/18
GFVLNDYGIS,VIYSDGRRTFYADSVK,GRAAGTFDE,GP_HC,7.6 nM,6/6,0/18
GFTINTLGIS,VIYHDGRRTFYDDFVK,GRAAVTFDQ,Rand,no signal,0/6,1/18
GFDLNEYGIS,VIYADGMRTAYVDSVK,GNQAGTFDV,En_Gen,5.3 nM,6/6,1/18
GFTVNSYGIS,VIYSDGRRTFYGDSVD,GRAAGTFDS,Ctrl,no signal,0/6,0/18
GFDLNEYGIS,VIYADGRRTFYDDSVK,GQIAGTFDQ,En_HC,510 pM,6/6,0/18
GFMLDSYGIS,VIYSDGRRTFYGDSVK,GRLSGTADS,Ctrl,no signal,0/6,0/18
GFDLNEYGIS,VIYADGRRTAYIDSVK,GGNAGTFDV,En_Gen,540 pM,6/6,0/18
GFNLNEYGIS,VIYSDGRRTFYADSVK,GRDAGTFDS,GP_HC,14 nM,6/6,0/18
GFNLDEYGIS,VIYADGMRTFYQDSVK,GEVAGTFDF,En_HC,700 pM,6/6,1/18
GFNLNSFGIS,VIYSDGARTFYGDSVK,GRAAGTFDS,Ctrl,no signal,0/6,0/18
GFDLNEYGIS,VIYADGRRTFYADSVK,GSAAGTFDQ,En_HC,370 pM,6/6,0/18
GFTLNSYGIS,VIYSDGVRTFYADSVK,GRQAGTFDS,Ctrl,3.8 nM,6/6,0/18
GFTLNSYGIS,VIYSDGRRTFYSDSVK,GSVVGTFDS,GP_HC,no signal,0/6,0/18
GFDLNSYGIS,VIYSDGRRTFYSDRVK,GRTAGTFDS,GP_Gen,1.7 nM,6/6,1/18
GFSLEEYGIS,VIYSDGRRTFYGDSVK,GRTAGTFDS,GP_Gibbs,420 pM,6/6,0/18
GFDLNEYGIS,VIYADGVRTAYSDSVK,GTNAGTFDI,En_Gen,1.3 nM,6/6,0/18
GFDLNSYGIS,VIYSDGRRTFYADSVK,GRWAGTFDS,GPLM_Gen,2.3 nM,6/6,0/18
GFGLNEYGIS,VIYSDGRRTFYHDSVK,GRAAGFFDS,GP_HC,91 nM,1/6,0/18
GFSLNSYGIS,VIYSDGRRTMYGDSVK,GRNAGTFDS,GP_Gen,46 nM,6/6,2/18
GFDLDEYGIS,VIYADGRRTFYADSVK,GELAGTFDA,En_HC,340 pM,6/6,1/18
GFDLNEYGIS,VIYADGMRTAYANSVK,GNVAGTFDQ,En_Gen,350 pM,6/6,0/18
GFTLNQYGIS,VIYADGRRTFYGDSVK,GRAAGTFDS,Ctrl+GP_HC,920 pM,12/12,0/36
GFVLNEYGIS,VIYSDGRRTFYKDSVK,GRTAGTFDS,GP_Gen,1.1 nM,6/6,0/18
GFDLNEYGIS,VIYADGRRTAYSDSVK,GGVAGTFDL,En_HC,200 pM,6/6,0/18
GFDLDEYGIS,VIYADGRRTFYADSVK,GQLAGTFDA,En_HC,280 pM,6/6,0/18
GFDLNEYGIS,VIYADGMRTAYSDDVK,GTNAGTFDV,En_Gen,290 pM,6/6,0/18
YFDLNSYGIS,VIYSDGKRTFYGDSVK,GRTAGTFDS,GP_Gibbs,120 nM,5/6,1/18
GFSLNSYGIS,VIYSDGRRTFYGDSVK,GTEAGTFDS,GPLM_Gibbs,1.6 nM,6/6,0/18

The opening 3 entries, copied out:

CDR-H1,CDR-H2,CDR-H3,group,Kd,seen in,control signals
GFTLNEYGIS,VIYSDGRRTFYGDSVK,GRFAGTFDM,GP_HC,74 nM,3/6,0/18
GFFLDEYGIS,VIYADGMRTAYKDKVK,GSDTGLGWF,En_Gibbs,no signal,0/6,0/18
GFNLDEYGIS,VIYADGNRVFYANTVK,GLLGIGYSV,En_Gibbs,no signal,0/6,0/18

Data: MIT Lincoln Laboratory AlphaSeq set, Li et al. 2023, doi:10.1038/s41467-023-39022-2, as distributed in FLAb.